Reference: ChEMBL document CHEMBL3098045 (Bioorg Med Chem, 2014)

The chains behind the UniProt entries cited, without tags or fusion partners.
UniProt P14416, whole entry: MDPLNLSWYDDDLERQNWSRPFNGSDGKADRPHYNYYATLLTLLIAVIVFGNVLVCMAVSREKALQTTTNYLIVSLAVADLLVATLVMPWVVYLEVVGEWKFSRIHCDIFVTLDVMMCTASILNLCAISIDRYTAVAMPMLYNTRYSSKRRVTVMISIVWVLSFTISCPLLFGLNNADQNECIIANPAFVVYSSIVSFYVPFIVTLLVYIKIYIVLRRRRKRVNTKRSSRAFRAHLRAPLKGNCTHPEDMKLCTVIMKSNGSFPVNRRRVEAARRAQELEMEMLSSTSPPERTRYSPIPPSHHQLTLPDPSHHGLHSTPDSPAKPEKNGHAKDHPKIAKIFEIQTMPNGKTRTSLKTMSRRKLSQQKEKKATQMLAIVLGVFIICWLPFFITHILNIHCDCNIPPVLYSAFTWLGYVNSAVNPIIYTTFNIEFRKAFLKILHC

Molecular target: D(2) dopamine receptor (Homo sapiens, UniProt P14416)
Assay: Agonist activity at human dopamine D2 receptor expressed in CHO cells assessed as inhibition of forskolin-induced cAMP production after 20 mins relative to dopamine

**Q.** For `Oc1cccc2c1C[C@@H]1OCCN(CC3CC3)[C@H]1C2`, which Efficacy is on record?
**A.** Its Efficacy is 90%.

**Q.** For `Cl.Oc1cccc2c1C[C@H]1OCCN(CC3CC3)[C@@H]1C2`, which Efficacy is on record?
**A.** Its Efficacy is 99%.
